# This is a selection; strong and weak results do not stand in their true shares. Records with an inconclusive call do not appear. Entries that show only a call come without a potency. Some salts or complexes appear as unconnected parts, following the source record. The source made the active and inactive calls. The call rests on the fitted dose curve; in most records, active means well fitted inhibition curve with a large enough effect; inconclusive means small, poorly fitted or top-dose-only effect; inactive means no such curve, though single readings can be large or run the other way.
# The chains behind the UniProt entries cited, without tags or fusion partners.
# UniProt O89049, whole entry: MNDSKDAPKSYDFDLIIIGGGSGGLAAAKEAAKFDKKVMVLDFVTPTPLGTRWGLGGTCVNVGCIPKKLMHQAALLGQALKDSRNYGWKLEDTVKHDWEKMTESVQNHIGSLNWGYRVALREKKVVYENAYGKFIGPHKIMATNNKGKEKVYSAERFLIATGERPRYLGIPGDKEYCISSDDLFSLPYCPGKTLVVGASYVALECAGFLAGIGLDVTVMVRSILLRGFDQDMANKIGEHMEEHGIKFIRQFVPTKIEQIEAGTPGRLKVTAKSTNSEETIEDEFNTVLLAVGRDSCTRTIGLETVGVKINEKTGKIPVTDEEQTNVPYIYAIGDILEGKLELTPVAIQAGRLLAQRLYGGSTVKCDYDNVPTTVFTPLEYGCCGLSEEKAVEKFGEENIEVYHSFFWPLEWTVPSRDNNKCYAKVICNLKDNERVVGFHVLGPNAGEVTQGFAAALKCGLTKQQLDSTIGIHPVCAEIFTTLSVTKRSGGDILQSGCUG
# Biological target: Thioredoxin reductase 1, cytoplasmic (Rattus norvegicus) (UniProt O89049)
# Assay: qHTS Assay for Inhibitors of Mammalian Selenoprotein Thioredoxin Reductase 1 (TrxR1): qHTS; further: nearly all actives have a fitted effect of over 65% in size
# Settings: recombinant rTrxR1, NADPH fluorescence consumption, selenite substrate; series mostly up to 114 µM
# Potency means the concentration at half of the fitted maximal effect.
Structure (SMILES),"activity change, negative = inhibition",Potency
CSc1ccc(C(=O)NCC2(N3CCOCC3)CCCCC2)cc1,inactive,
CCOc1ccc(C(=O)NCC2(N3CCOCC3)CCCCC2)cc1,inactive,
O=C(NCC1(N2CCCCC2)CCCCC1)c1cccc([N+](=O)[O-])c1,inactive,
CCN1CCC(Nc2ccc(Cl)cc2)CC1,inactive,
N#CC1(Nc2ccccc2)CCN(CCc2ccccc2)CC1,inactive,
O=C(NCC1(N2CCCCC2)CCCCC1)c1ccc(OC(F)F)cc1,inactive,
COc1ccc(NC2CCN(C(=O)OC(C)(C)C)CC2)cc1,inactive,
CC(C)c1ccc(C(=O)NCC2(N3CCOCC3)CCCCC2)cc1,inactive,
CN1CCN(CCOC(=O)C(O)(c2ccccc2)c2ccccc2)CC1,inactive,
O=C(NCC1(N2CCOCC2)CCCCC1)c1cc(=O)[nH]c2ccccc12,inactive,
COc1cc(C(=O)NCC2(N3CCCCC3)CCCCC2)ccc1OC(F)F,inactive,
O=C(NCC1(N2CCCCC2)CCCCC1)c1cccc(C(F)(F)F)c1,inactive,
CCCOc1cccc(C(=O)NCC2(N3CCOCC3)CCCCC2)c1,inactive,
COc1cc(OC)c(C(=O)NCC2(N(C)C)CCCCC2)cc1OC,inactive,
O=C(NCC1(N2CCOCC2)CCCCC1)c1cc(F)c(F)cc1Cl,inactive,
COc1ccc(CN(CCCl)CCCl)cc1Cl,,active: 7.08 µM
CN(C)c1cccc(C(=O)NCC2(N3CCCCC3)CCCCC2)c1,inactive,
O=[N+]([O-])c1cc([N+](=O)[O-])c(OC2CCCCC2O)c([N+](=O)[O-])c1 (stereo unspecified),inactive,
CC(C)c1ccc(NC2CCN(C(=O)OC(C)(C)C)CC2)cc1,inactive,
CCCCOc1ccccc1C(=O)NCC1(N2CCOCC2)CCCCC1,inactive,
CCCOc1ccc(C(=O)NCC2(N(C)C)CCCCC2)cc1OC,inactive,
O=C(NCC1(N2CCOCC2)CCCCC1)c1ccccc1Br,inactive,
O=C(NCC1(N2CCCCC2)CCCCC1)c1cncc(Br)c1,inactive,

Structure (SMILES),"activity change, negative = inhibition",Potency
COc1ccc2c(c1O)-c1c(O)c(OC)cc3c1[C@H](C2)[N+](C)(C)CC3.O=[N+]([O-])c1cc([N+](=O)[O-])c([O-])c([N+](=O)[O-])c1[O-],inactive,
CN1CCC(Nc2cccc(F)c2)CC1,inactive,
O=C(OC1CN2CCC1CC2)c1ccc([N+](=O)[O-])cc1 (stereo unspecified),inactive,
CSc1ccccc1C(=O)NCC1(N2CCCCC2)CCCCC1,inactive,
Cc1cccc(NC2(C#N)CCN(Cc3ccccc3)CC2)c1,inactive,
O=C(NCC1(N2CCCCC2)CCCCC1)c1ccc(=O)[nH]c1,inactive,
O=C(NCC1(N2CCCCC2)CCCCC1)c1cccs1,inactive,
COc1ccc(C(=O)NCC2(N3CCCCC3)CCCCC2)cc1,inactive,
COc1ccc(C(=O)NCC2(N3CCCCC3)CCCCC2)c(OC)c1OC,inactive,
CC(C)(C)OC(=O)N1CCC(N(C(=O)c2ccccc2)c2ccc(F)cc2)CC1,inactive,
CCOC(=O)N1CCC(Nc2ccc(OC)cc2)CC1,inactive,
O=C(OC1CN2CCC1CC2)C1c2ccccc2Oc2ccccc21 (stereo unspecified),inactive,
N#CC1(Nc2ccccc2)CCN(Cc2ccccc2)CC1,inactive,
O=C(NCC1(N2CCCCC2)CCCCC1)c1ccc(Cl)s1,inactive,
O=C1C(O)=C([N+](=O)[O-])C(=O)C(O)=C1[N+](=O)[O-],inactive,
COc1ccc(Cl)cc1C(=O)NCC1(N2CCOCC2)CCCCC1,inactive,
O=C(NCC1(N2CCOCC2)CCCCC1)c1cc2ccccc2o1,inactive,
O=C(NCC1(N2CCCCC2)CCCCC1)c1ccc(Cl)nc1,inactive,
Cc1cc(C)cc(N(C(=O)c2ccccc2)C2CCN(C(=O)OC(C)(C)C)CC2)c1,inactive,
O=C(NCC1(N2CCCCC2)CCCCC1)c1ccc(F)cc1,inactive,
CCCCOc1ccc(C(=O)NCC2(N3CCOCC3)CCCCC2)cc1,inactive,
O=P1(N(CCCl)CCCl)SCCCS1,inactive,
CCOC(=O)N1CCC(Nc2ccc(F)cc2)CC1,inactive,

Structure (SMILES),"activity change, negative = inhibition",Potency
COc1ccc(NC2CCN(CCc3ccccc3)CC2)c(OC)c1,inactive,
COc1ccccc1C(=O)NCC1(N2CCOCC2)CCCCC1,inactive,
O=C(NCC1(N2CCOCC2)CCCCC1)c1ccc(Cl)cc1,inactive,
O=C1CCN(Cc2ccccc2)CC1,inactive,
COc1cc(C(=O)NCC2(N(C)C)CCCCC2)ccc1OC(F)F,inactive,
CCOC(=O)N1CCC(Nc2cccc(C)c2)CC1,inactive,
Cc1ccc(NC2(C#N)CCN(Cc3ccccc3)CC2)cc1,inactive,
Cc1ccc(C(=O)NCC2(N3CCCCC3)CCCCC2)o1,inactive,
Fc1ccccc1NC1CCN(Cc2ccccc2)CC1,inactive,
COc1cc(OC)cc(C(=O)NCC2(N3CCCCC3)CCCCC2)c1,inactive,
CC(=O)N(c1ccccc1)C1CCNCC1,inactive,
CN(C)C1(CNC(=O)c2ccc(C(C)(C)C)cc2)CCCCC1,inactive,
CC(C)(C)c1ccc(C(=O)NCC2(N3CCOCC3)CCCCC2)cc1,inactive,
O=C(NCC1(N2CCCCC2)CCCCC1)c1ccco1,inactive,
CN(C)c1ccc(C(=O)NCC2(N3CCCCC3)CCCCC2)cc1,inactive,
Cc1ccccc1C(=O)NCC1(N(C)C)CCCCC1,inactive,
Cc1ccccc1NC1(C#N)CCN(Cc2ccccc2)CC1,inactive,
CCN1CCC(Nc2cccc(F)c2)CC1,inactive,
CCCOc1ccc(C(=O)NCC2(N(C)C)CCCCC2)cc1,inactive,
CC(C)(C)OC(=O)N1CCC(Nc2ccccc2)CC1,inactive,
O=C(O)C1(Nc2ccccc2)CCN(Cc2ccccc2)CC1,inactive,
CCOc1ncccc1C(=O)NCC1(N2CCOCC2)CCCCC1,inactive,
CN1CCC(Nc2ccc(F)c(Cl)c2)CC1,inactive,

Structure (SMILES),"activity change, negative = inhibition",Potency
CN1CCC(Nc2ccc(Cl)cc2)CC1,inactive,
CCC(CO)(C(=O)OC1CN2CCC1CC2)c1ccccc1 (stereo unspecified),inactive,
COc1cccc(C(=O)N(c2cc(C)cc(C)c2)C2CCN(C(=O)OC(C)(C)C)CC2)c1,inactive,
COc1cc(C(=O)NCC2(N3CCOCC3)CCCCC2)cc(OC)c1OC,inactive,
COc1cc(OC)cc(C(=O)NCC2(N3CCOCC3)CCCCC2)c1,inactive,
O=Cc1ccc(N(CCCl)CCCl)cc1,inactive,
O=C(NCC1(N2CCOCC2)CCCCC1)c1cc(Br)ccc1Cl,inactive,
COc1cc(C(=O)NCC2(N3CCOCC3)CCCCC2)cc(OC)c1C,inactive,
O=C(OC1CN2CCC1CC2)C1c2ccccc2C=Cc2ccccc21 (stereo unspecified),inactive,
CCc1cc(C(=O)NCC2(N3CCCCC3)CCCCC2)sc1C,inactive,
N/C(=N\O)c1c(N)no[n+]1[O-],inactive,
CCOC(=O)N1CCC(Nc2ccc(C)cc2)CC1,inactive,
CCOC(=O)C(CC)C1=NC(C)(C)Cc2ccccc21.O=[N+]([O-])c1cc([N+](=O)[O-])c(O)c([N+](=O)[O-])c1 (stereo unspecified),inactive,
O=C(NCC1(N2CCOCC2)CCCCC1)c1ccc([N+](=O)[O-])cc1,inactive,
CC(C)(C)OC(=O)N1CCC(N(C(=O)c2ccccc2)c2ccc(Cl)cc2)CC1,inactive,
O=C(NCC1(N2CCOCC2)CCCCC1)c1ccccc1[N+](=O)[O-],inactive,
N#Cc1ccc(C(=O)NCC2(N3CCCCC3)CCCCC2)cc1,inactive,
c1ccc(CN2CCC(Nc3ccccc3)CC2)cc1,inactive,
CCCN1CCC(Nc2cc(OC)cc(OC)c2)CC1,inactive,
Cc1cc(N(CCCl)CCCl)ccc1C=O,inactive: 9.18% [at 11.4 µM],
O=C(NCC1(N2CCOCC2)CCCCC1)c1ccccc1,inactive,
CN(C)C1(CNC(=O)c2cccc(C#N)c2)CCCCC1,inactive,
